The entries are a selection whose mix differs from that of the whole data set. Activity calls are given as the source filed them.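 Rule for the calls: active = pattern-corrected inhibition of lipid staining of at least 50% with the nuclear-stain viability signal not falling by more than 50%; inactive = the rest, inconclusive results apart.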
test: TAG lipid buildup reduction in H9c2 cells – cell-based, uHTS, fluorescence, primary screen (AID 651582); details: Nile Red lipid (TAG) fluorescence, at 12.5 µM, active compounds read high, cells loaded with 200 µM oleic acid;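 note: 0% = DMSO wells and 100% = triacsin C control wells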

SMILES | inhibition
CN(C)C(=O)c1cc([N+](=O)[O-])cc2c1-c1c(cc([N+](=O)[O-])cc1[N+](=O)[O-])C2=O | active: 80.5%
CCC(C)N(CC(C)C)C(=S)SC(NC(C)=O)C(Cl)(Cl)Cl (stereo not drawn) | active: 106%
CC(=O)NC(SC(=S)N(CC(C)C)CC(C)C)C(Cl)(Cl)Cl (stereo not drawn) | active: 77.7%

Source: PubChem BioAssay AID651582 (Sanford-Burnham Center for Chemical Genomics, 2012)
